{"sequences": {"note": "Chains of the proteins cited; added tags and fusions are not shown.", "UniProt P08913, whole entry": "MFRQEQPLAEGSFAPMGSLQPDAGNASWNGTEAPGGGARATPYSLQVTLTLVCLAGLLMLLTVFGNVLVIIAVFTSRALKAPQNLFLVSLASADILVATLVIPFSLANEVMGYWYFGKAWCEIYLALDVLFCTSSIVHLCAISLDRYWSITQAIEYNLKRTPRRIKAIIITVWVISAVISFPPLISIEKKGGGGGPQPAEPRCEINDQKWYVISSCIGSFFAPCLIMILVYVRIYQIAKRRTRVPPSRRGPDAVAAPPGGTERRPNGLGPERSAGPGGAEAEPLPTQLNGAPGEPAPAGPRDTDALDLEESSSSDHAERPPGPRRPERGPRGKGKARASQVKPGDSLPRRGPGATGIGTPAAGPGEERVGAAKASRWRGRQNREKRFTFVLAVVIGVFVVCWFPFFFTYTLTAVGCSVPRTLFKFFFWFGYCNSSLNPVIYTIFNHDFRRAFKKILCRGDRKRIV"}, "source": "patent US20140038836A1", "about": "“Novel Pharmacogene Single Nucleotide Polymorphisms and Methods of Detecting Same” (priority 2012, published 2014)", "origin": "cited, not measured here", "target": "ADRA2A (alpha2A subtype alpha-2-adrenergic receptor) (Homo sapiens, UniProt P08913)", "settings": "antagonists of the alpha2A receptor", "data": [{"smiles": "CC(C)NC[C@H](O)COc1cccc2ccccc12", "note": "(racemic) [propanolol]", "values": [{"measurement": "rank order for antagonists", "value": "yohimbine>phentolamine=mianserine>chlorpromazine=spiperone=prazosin>propanolol>alprenolol=pindolol"}]}]}
